scFv variants of Ab-14 (heavy chain) against a SARS-CoV-2 spike peptide

Source: Li et al. 2023 (doi:10.1038/s41467-023-39022-2), MIT Lincoln Laboratory and A-Alpha Bio; data file from the FLAb repository.

The target is the same throughout: PDVDLGDISGINAS, from the HR2 region of SARS-CoV-2 spike.

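Phage display of a naive human antibody library on the peptide gave the parent. Designed CDR sequences, proposed from the first random library and measured here. Their group label is 14H_GP_Gibbs (GP: Gaussian process model; Gibbs: Gibbs sampling; a sequence that several methods proposed may carry one label only). In AlphaSeq, yeast of one mating type display the scFv and yeast of the other type display the target. The frequency of each diploid, read from paired DNA barcodes, reflects how well the two displayed proteins bind. Scores were corrected for input abundance and mapped to Kd with protein pairs of known affinity run in the same pool. There are six technical replicates.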

Parent: Ab-14, a human scFv built as VH, the linker GGGGSGGGGSGGGGS, VL. Only the CDRs of the heavy chain vary.
VH: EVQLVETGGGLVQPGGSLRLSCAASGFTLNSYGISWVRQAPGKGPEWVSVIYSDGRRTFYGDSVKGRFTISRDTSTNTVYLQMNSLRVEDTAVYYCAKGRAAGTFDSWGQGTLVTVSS
VL: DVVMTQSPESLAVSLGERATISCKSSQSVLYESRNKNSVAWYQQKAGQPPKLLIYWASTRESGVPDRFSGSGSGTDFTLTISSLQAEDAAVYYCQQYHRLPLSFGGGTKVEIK

Each variant is given by its three heavy chain CDRs, as the data file delimits them; those of the parent are GFTLNSYGIS, VIYSDGRRTFYGDSVK, GRAAGTFDS.
Scale: log10 of Kd in nM, estimated from mating counts; low values are strong binders.
An entry "nd" has no value in the source: the pair was not observed among the diploids in that replicate. This suggests poor binding but is not conclusive.

| # | CDR-H1 | CDR-H2 | CDR-H3 | log10 Kd (nM) by replicate | control signals |
|---|---|---|---|---|---|
| 1 | GFSLNSYGIS | VIYADGRRTFYGDRVK | GEAAGTFDK | -0.23 / -0.06 / -0.81 / -0.87 / -0.12 / -0.04 | 0 of 18 |
| 2 | KKSLNSYGIS | VIYSDGRRTFYSDSVK | GRTAGTFDS | 2.25 / 1.96 / nd / nd / 1.38 / nd | 1 of 18 (1.95) |
| 3 | GFSLNSYGIS | VIYSDGRRTFYGDMVK | GKTAGTFDR | nd / 0.80 / nd / nd / nd / nd | 0 of 18 |
| 4 | GFELNSYGIS | VIYSDGRRTFYIDSVK | GTVAGTFDS | 0.05 / 0.14 / 0.11 / -0.39 / -0.27 / -0.04 | 0 of 18 |
| 5 | GFSLKSYGIS | VIYADGRRTFYGDNVK | GEAAGTFDS | -0.76 / -1.16 / 0.22 / nd / -1.37 / -0.65 | 0 of 18 |
| 6 | GFQLNEYGIS | VIYSDGRRTFYGDQVK | GQAAGTFDL | 0.40 / 0.53 / 0.97 / 1.30 / 0.39 / 0.70 | 1 of 18 (2.13) |
| 7 | KFSLNNYGIS | VIYSDGRRTFYGDSVK | GWTAGTFDS | -0.26 / 0.18 / 0.45 / 0.73 / 0.72 / 1.27 | 1 of 18 (1.71) |
| 8 | GFTLNSYGIS | VIYSDGKRTFYGDSVK | GWVAGTFDL | nd / 1.00 / nd / 1.39 / 0.59 / nd | 0 of 18 |
| 9 | GFSLNSYGIS | VIYSDGRRTFYGDSVK | GMEAGTFDK | 0.34 / 0.09 / 0.03 / -0.28 / -0.26 / 0.50 | 0 of 18 |
| 10 | DFDLNSYGIS | VIYSDGRRTFYGDSVK | GNAAGTFDS | nd / nd / nd / nd / nd / nd | 2 of 18 (3.61) |
| 11 | GFDLNEYGIS | VIYSDGRRTFYVDSVK | GKAAGTFDT | 0.09 / 0.12 / -0.66 / -0.44 / -0.61 / 0.52 | 0 of 18 |
| 12 | WFDLNSYGIS | VIYSDGRRTFYHDSVK | GRTAGTFDS | 1.20 / 0.96 / 0.65 / 0.55 / 0.49 / 0.96 | 0 of 18 |
| 13 | GFQLNSYGIS | VIYSDGRRTFYKDSVK | GKTAGTFDS | nd / 1.66 / nd / nd / nd / nd | 0 of 18 |
| 14 | GFTLNSYGIS | VIYSDGRRTFYSDSVK | GKMAGTFDT | nd / 2.62 / 0.90 / nd / 0.01 / 0.94 | 0 of 18 |
| 15 | GFTLNSYGIS | VIYSDGKRTFYGDKVK | GQAAGTFDL | nd / 1.50 / 1.54 / 1.51 / 1.74 / 1.58 | 0 of 18 |
| 16 | PFSLNSYGIS | VIYSDGRRTFYKDSVK | GRTAGTFDS | nd / nd / nd / 1.67 / nd / 2.63 | 0 of 18 |
| 17 | GFELNSYGIS | VIYSDGRRTFYCDAVK | GKTAGTFDS | 1.15 / 0.81 / 1.40 / 1.28 / 1.29 / 1.13 | 1 of 18 (2.01) |
| 18 | GFQLNSYGIS | VIYSDGRRTFYVDSVK | GRLAGTFDS | nd / nd / nd / 1.84 / nd / nd | 0 of 18 |
| 19 | GFNLNSYGIS | VIYSDGRRTFYGDKVK | GKTAGTFDS | 0.66 / 0.95 / 0.29 / -0.08 / 0.06 / 0.40 | 0 of 18 |
| 20 | MFDLNTYGIS | VIYSDGRRTFYHDSVK | GEAAGTFDS | 1.51 / 4.69 / 1.70 / 1.37 / 1.99 / 1.90 | 1 of 18 (3.02) |
| 21 | GFTLDSYGIS | VIYSDGRRTFYGDSVK | GNEAGTFDT | -0.23 / -0.33 / 0.22 / -0.80 / -0.16 / -0.41 | 0 of 18 |
| 22 | GFTLKSYGIS | VIYADGRRTFYGDSVK | GRAAGTFDN | 1.97 / 1.15 / 1.50 / 1.04 / 2.01 / 1.39 | 0 of 18 |
| 23 | GFTLNSYGIS | VIYSDGWRTFYGDSVK | GQVAGTFDS | -0.20 / -0.24 / 0.18 / 0.07 / -0.12 / 0.26 | 0 of 18 |
| 24 | GFNLNSYGIS | VIYSDGRRTFYGDPVK | GRLAGTFDS | nd / 2.03 / 4.29 / nd / 3.30 / 1.26 | 1 of 18 (2.67) |
| 25 | GFWLNDYGIS | VIYSDGRRTFYHDSVK | GRQAGTFDS | 0.31 / 1.13 / nd / 0.33 / 1.96 / nd | 1 of 18 (2.37) |
| 26 | GFYLNSYGIS | VIYSDGRRTFYGDSVK | GKTAGTFDT | 0.01 / -0.26 / -0.26 / 0.58 / 0.13 / 0.40 | 1 of 18 (1.06) |
| 27 | GFNLNTYGIS | VIYSDGRRTMYGDSVK | GRTAGTFDS | 0.35 / 0.04 / 0.05 / 0.06 / -0.36 / 0.35 | 0 of 18 |
| 28 | KFQLNAYGIS | VIYSDGRRTFYGDSVK | GRTAGTFDS | nd / nd / nd / nd / nd / nd | 0 of 18 |
| 29 | GFELNNYGIS | VIYSDGRRTAYGDSVK | GRAAGTFDS | nd / 2.79 / nd / nd / nd / 2.92 | 1 of 18 (1.76) |
| 30 | GFSLNSYGIS | VIYSDGQRTFYVDDVK | GRTAGTFDS | -0.17 / 0.42 / 0.68 / -0.13 / 0.01 / 0.32 | 0 of 18 |
| 31 | GFTLNDYGIS | VIYSDGRRTFYGDSVK | GQTAGTFDK | 0.36 / 0.41 / 0.13 / 0.34 / 0.49 / 0.86 | 0 of 18 |
| 32 | GFELNDYGIS | VIYSDGRRTFYDDSVK | GRTAGTFDS | -0.71 / -1.36 / -0.91 / -1.12 / -1.31 / -0.39 | 0 of 18 |
| 33 | GFDLNSYGIS | VIYSDGRRTFYLDSVK | GWTAGTFDS | 0.69 / 1.11 / -0.13 / 0.12 / -0.02 / 0.71 | 0 of 18 |
| 34 | GFTLESYGIS | VIYADGRRTFYGDSVK | GRAAGTFDW | 2.27 / 2.45 / 1.72 / 1.99 / 2.19 / nd | 0 of 18 |
| 35 | GFNLNSYGIS | VIYSDGRRTFYTDSVK | GRNAGTFDS | 0.47 / 0.68 / 0.74 / 0.83 / 0.94 / 0.81 | 0 of 18 |
| 36 | EFTLNSYGIS | VIYSDGRRTFYADSVK | GREAGTFDT | nd / nd / nd / nd / nd / nd | 0 of 18 |
| 37 | GFSLNNYGIS | VIYSDGRRTFYVDSVK | GQTAGTFDS | nd / nd / nd / nd / nd / nd | 0 of 18 |
| 38 | GFGLNEYGIS | VIYSDGRRTFYADSVK | GRAAGTFDK | -0.86 / -0.46 / -0.86 / -0.91 / -0.58 / -0.84 | 0 of 18 |
| 39 | GFELNSYGIS | VIYSDGQRTFYGDNVK | GRTAGTFDS | 1.50 / 0.78 / -0.01 / 0.11 / 1.09 / 0.94 | 0 of 18 |
| 40 | GFYLNSYGIS | VIYSDGRRTFYGDSVK | GQTAGTFDV | nd / nd / nd / nd / 0.42 / 0.93 | 0 of 18 |
| 41 | KFDLNSYGIS | VIYSDGRRTFYADSVK | GRMAGTFDS | 0.77 / 0.29 / 0.53 / 0.53 / 0.19 / 0.45 | 0 of 18 |
| 42 | GFQLNDYGIS | VIYSDGRRTFYKDQVK | GRTAGTFDS | 1.06 / 1.29 / 0.98 / nd / 0.97 / 1.59 | 0 of 18 |
| 43 | GFDLNSYGIS | VIYSDGKRTFYIDRVK | GQAAGTFDS | 3.51 / 2.40 / 2.35 / 2.54 / 1.82 / 3.17 | 0 of 18 |
| 44 | MFSLNSYGIS | VIYSDGRRTFYKDSVK | GNEAGTFDS | 1.26 / 1.91 / 1.41 / 1.21 / 2.02 / 1.31 | 0 of 18 |
| 45 | GFDLNTYGIS | VIYSDGMRTFYHDSVK | GRTAGTFDS | -0.01 / -0.10 / -0.07 / -0.13 / 0.10 / -0.18 | 1 of 18 (2.08) |

The 3 strongest on average among those seen in every replicate, once more:

| CDR-H1 | CDR-H2 | CDR-H3 | log10 Kd (nM) by replicate | control signals |
|---|---|---|---|---|
| GFELNDYGIS | VIYSDGRRTFYDDSVK | GRTAGTFDS | -0.71 / -1.36 / -0.91 / -1.12 / -1.31 / -0.39 | 0 of 18 |
| GFGLNEYGIS | VIYSDGRRTFYADSVK | GRAAGTFDK | -0.86 / -0.46 / -0.86 / -0.91 / -0.58 / -0.84 | 0 of 18 |
| GFSLNSYGIS | VIYADGRRTFYGDRVK | GEAAGTFDK | -0.23 / -0.06 / -0.81 / -0.87 / -0.12 / -0.04 | 0 of 18 |

Empty control strains, which show no peptide, gave a signal in 1% of pairings with all heavy chain designs; the median was 2.08 and 95% of these signals were weaker than 0.84. No background was subtracted. Also given: how often the same scFv was detected with the empty control strains, with their mean in brackets.
The parent sequence was in this pool as ten entries: three were never detected, three once, and four in most replicates, with averages from 0.34 to 2.37.
A sequence measured in both rounds can read differently, since the two assays cover different ranges.
The authors averaged sequences with at least three values out of six and counted those with two or fewer as poor binders.